Source: article PMC3414448 (PLoS ONE, 2012)
Read-outs that look alike come from different tables or passages of the source.

What was measured:
CHO-K1 cells = conditions: CHO-K1, 100 µM, 20 hr treatment

Structure (SMILES): CO[C@@]12[C@H](COC(N)=O)C3=C(C(=O)C(C)=C(N)C3=O)N1C[C@@H]1N[C@@H]12 [MMC, mitomycin C]
- % Binucleated (CHO-K1 cells): 62.33%
- % Binucleated (A549 cells; A549, 1 µM, 20 hr treatment): 58.78%
- % Binucleated (A549 cells; A549, 100 µM, 20 hr treatment): 46.78%
- kinetochore-negative MN (CENP-B staining) (A549 cells; A549, data not shown): increases in kinetochore-negative MN
- % Binucleated (A549 cells; human): 57.00%
